From patent US10428044B2, “3-amino-1,5,6,7-tetrahydro-4H-indol-4-ones” (Bayer Pharma Aktiengesellschaft, priority 2014, dated 2019)

Amino acid sequences for entries named in this document (tags omitted). Residues count along the entry.
UniProt O43683, 704-1085 limits assumed: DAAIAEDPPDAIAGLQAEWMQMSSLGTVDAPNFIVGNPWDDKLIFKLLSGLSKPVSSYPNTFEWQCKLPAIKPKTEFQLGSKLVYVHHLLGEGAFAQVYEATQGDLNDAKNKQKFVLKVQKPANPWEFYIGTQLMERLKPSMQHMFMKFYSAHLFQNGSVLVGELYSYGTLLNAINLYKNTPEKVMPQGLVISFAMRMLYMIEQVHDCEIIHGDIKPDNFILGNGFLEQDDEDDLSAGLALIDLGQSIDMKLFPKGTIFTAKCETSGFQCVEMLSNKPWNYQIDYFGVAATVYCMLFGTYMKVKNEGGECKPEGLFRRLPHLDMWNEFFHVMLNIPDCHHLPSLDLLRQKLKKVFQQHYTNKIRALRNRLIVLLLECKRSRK

Target: (recombinant) catalytic domain of human Bub1 (amino acids 704-1085) (Homo sapiens (Human), UniProt O43683)
Experiment: Bub1 kinase assay (TR-FRET)
Conditions: read-out: Biological Assay: Bub1 kinase assay median IC50, ATP 10 μM final, peptide substrate 1 μM final, 60 min at 22° C.

CC1(C)CC(=O)c2c([nH]c(-c3ccnc(NC(=O)C4CC4F)c3)c2Nc2ccccc2)C1 (single isomer, unassigned) [Example 255]
IC50: 5.35 nM
